Test results published in patent US9328099B2, “Cyanomethylpyrazole carboxamides as janus kinase inhibitors” (Merck Sharp & Dohme Corp., priority 2011, dated 2016).

Protein sequences, listed by entry. Tags and fused reporters are not part of them. Residues count along the entry.
UniProt O60674, 849-1124: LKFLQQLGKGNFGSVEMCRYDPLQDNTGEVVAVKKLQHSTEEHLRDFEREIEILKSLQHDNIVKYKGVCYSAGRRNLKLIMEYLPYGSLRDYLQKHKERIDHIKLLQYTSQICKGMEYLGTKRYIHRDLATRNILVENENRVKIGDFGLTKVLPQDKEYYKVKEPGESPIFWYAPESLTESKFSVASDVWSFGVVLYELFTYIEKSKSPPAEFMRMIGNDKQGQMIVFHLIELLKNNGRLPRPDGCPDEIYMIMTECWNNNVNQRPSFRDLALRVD
UniProt P23458, 875-1153: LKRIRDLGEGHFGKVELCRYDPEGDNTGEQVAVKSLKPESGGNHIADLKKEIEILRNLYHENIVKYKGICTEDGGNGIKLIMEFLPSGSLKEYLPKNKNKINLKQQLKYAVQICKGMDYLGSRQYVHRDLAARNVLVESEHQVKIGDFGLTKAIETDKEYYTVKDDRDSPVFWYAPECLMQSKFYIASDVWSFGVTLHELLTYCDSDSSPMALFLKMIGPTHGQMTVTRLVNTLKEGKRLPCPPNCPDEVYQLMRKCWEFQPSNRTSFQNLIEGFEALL

What was measured:
[1] = molecular target: JAK2 (Homo sapiens (Human), UniProt O60674); test: Jak Biochemical HTRF Assay, JAK2
Excerpt: (§1) Jak Biochemical HTRF Assay Protocol
(§2) Subsequent reagent additions employed an Agilent Bravo.

[2] = molecular target: JAK1 (Homo sapiens (Human), UniProt P23458); test: Jak Biochemical HTRF Assay, JAK1
Excerpt: as §1, §2

[3] = HTRF biochemical assay, GST-tagged catalytic domain, top concentration tested […]

Row | IC50 [1, 3] [nM] | IC50 [2, 3] [nM] | Compound | also measured
1 |  |  | CC(F)(F)C(=O)N1CC[C@](CC#N)(n2cc(C(N)=O)c(Nc3ccc(F)nc3)n2)[C@@H](F)C1 (single isomer, unassigned) [Example 43-1, 1-((3S,4R or 3R,4S)-4-(cyanomethyl)-1-(2,2-difluoropropanoyl)-3-fluoropiperidin-4-yl)-3-((6-fluoropyridin-3-yl)amino)-1H-pyrazole-4-carboxamide] | IC50 [1]: 13 nM
2 |  |  | CC(F)(F)C(=O)N1CC[C@@](CC#N)(n2cc(C(N)=O)c(Nc3ccc(F)nc3)n2)[C@H](F)C1 (single isomer, unassigned) [Example 43-2, 1-((3S,4R or 3R,4S)-4-(cyanomethyl)-1-(2,2-difluoropropanoyl)-3-fluoropiperidin-4-yl)-3-((6-fluoropyridin-3-yl)amino)-1H-pyrazole-4-carboxamide] | IC50 [1]: 67 nM
3 | 5 |  | CC(F)(F)C(=O)N1CC[C@](CC#N)(n2cc(C(N)=O)c(Nc3ccc(F)nc3)n2)[C@H](F)C1 (single isomer, unassigned) [Example 43-3, 1-((3R,4R or 3S,4S)-4-(cyanomethyl)-1-(2,2-difluoropropanoyl)-3-fluoropiperidin-4-yl)-3-((6-fluoropyridin-3-yl)amino)-1H-pyrazole-4-carboxamide] | 
4 | 0.1 |  | CC(F)(F)C(=O)N1CC[C@@](CC#N)(n2cc(C(N)=O)c(Nc3ccc(F)nc3)n2)[C@@H](F)C1 (single isomer, unassigned) [Example 43-4, 1-((3R,4R or 3S,4S)-4-(cyanomethyl)-1-(2,2-difluoropropanoyl)-3-fluoropiperidin-4-yl)-3-((6-fluoropyridin-3-yl)amino)-1H-pyrazole-4-carboxamide] | 
5 |  | 1 | N#CCC1(n2cc(C(N)=O)c(Nc3ccc(F)cc3)n2)CCN(C(=O)OC2CCOC2)CC1 (single isomer, unassigned) [Example 50-1, (3S or 3R)-tetrahydrofuran-3-yl 4-{4-carbamoyl-3-[(4-fluorophenyl)amino]-1H-pyrazol-1-yl}-4-(cyanomethyl)piperidine-1-carboxylate] | 
6 |  | 2 | N#CCC1(n2cc(C(N)=O)c(Nc3ccc(F)cc3)n2)CCN(C(=O)OC2CCOC2)CC1 (single isomer, unassigned) [Example 50-2, (3S or 3R)-tetrahydrofuran-3-yl4-{4-carbamoyl-3-[(4-fluorophenyl)amino]-1H-pyrazol-1-yl}-4-(cyanomethyl)piperidine-1-carboxylate] | 
7 |  |  | COC(=O)C(C)(C)OC(=O)N1CCC(CC#N)(n2cc(C(N)=O)c(Nc3ccc(F)cc3)n2)CC1 [Example 29-A, 1-Methoxy-2-methyl-1-oxopropan-2-yl4-{4-carbamoyl-3-[(4-fluorophenyl)amino]-1H-pyrazol-1-yl}-4-(cyanomethyl)piperidine-1-carboxylate] | IC50 [2]: 1 nM
8 |  | 1 | N#CCC1(n2cc(C(N)=O)c(Nc3ccc(F)cc3)n2)CCN(C(=O)OC2CCOC2)CC1 (stereo not drawn) [Example 30-46, tetrahydrofuran-3-yl 4-{4-carbamoyl-3-[(4-fluorophenyl)amino]-1H-pyrazol-1-yl}-4-(cyanomethyl)piperidine-1-carboxylate] | 
9 | 336 |  | N#CC[C@]1(n2cc(C(N)=O)c(Nc3ccnc(F)c3)n2)CC[C@@H](NS(=O)(=O)c2cccc(F)c2)CC1 [Example 42, cis-1-(1-(Cyanomethyl)-4-(3-fluorophenylsulfonamido)cyclohexyl)-3-((2-fluoropyridin-4-yl)amino)-1H-pyrazole-4-carboxamide] | 

Where two headings read alike, the source gives them in different places.
